Tests used:
[1] = Solubility of aluminum phthalocyanine chloride (AlPc-Cl) in adduct/solvent; conditions: 0.1% adduct by weight; minimum AlPc-Cl concentration tested in brackets (0.10% weight)
[2] = Solubility of adducts in water, ammonium hydroxide water, isopropanol and toluene; conditions: for Solubility in Ammonium Hydroxide Water (28-30% NH4OH) / Solubility in Isopropanol / Solubility in Toluene: 10% by weight of adduct; for Solubility in Water: minimal undefined concentration
[3] = Solubility statements in running text

Q: Which results are given for `CC(O)CN(CC(C)O)C(=O)c1c(Br)c(Br)c(Br)c(Br)c1C(=O)O` (stereo not drawn)?
A: Solubility of AlPc-Cl in adduct/Isopropanol [1]: No [0.10%]; Solubility in Ammonium Hydroxide Water (28-30% NH4OH) [2]: Yes; Solubility in Isopropanol [2]: Yes; Solubility in Toluene [2]: No; Solubility in Water [2]: Yes

Q: With `O=C(O)c1c(Br)c(Br)c(Br)c(Br)c1C(=O)NCCOCCOCCNC(=O)c1c(Br)c(Br)c(Br)c(Br)c1C(=O)O` as the compound, how does the “Solubility in Ammonium Hydroxide Water (28-30% NH4OH)” value [2] read?
A: No

Q: What about the “Solubility in Isopropanol” value [2] of the same compound?
A: No

Q: What about the “Solubility in Toluene” value [2] of the same compound?
A: No

Q: And the “Solubility in Water” value [2]?
A: No

Q: For zinc phthalocyanine tetrasulfonate, which Solubility in Water [3] is on record?
A: highly soluble

Q: What does the source list for `O=C(O)c1c(Br)c(Br)c(Br)c(Br)c1C(=O)NCCNCCO`?
A: Solubility in Ammonium Hydroxide Water (28-30% NH4OH) [2]: No; Solubility in Isopropanol [2]: No; Solubility in Toluene [2]: No; Solubility in Water [2]: No

Q: For `CC(O)CNC(=O)c1c(Br)c(Br)c(Br)c(Br)c1C(=O)O` (stereo not drawn), which “Solubility in Ammonium Hydroxide Water (28-30% NH4OH)” value [2] is on record?
A: No, oily

Q: And the “Solubility in Isopropanol” value [2]?
A: No, oily

Q: What about the “Solubility in Toluene” value [2] of the same compound?
A: No, oily

Q: And the “Solubility in Water” value [2]?
A: No, oily

Reference: patent US8679990B2, “Self-decontaminating coatings and fabrics” (dated 2014)
